{"sequences": {"note": "The chains behind the UniProt entries cited, without tags or fusion partners. Residues count along the entry.", "UniProt P36897, 34-503 limits assumed": "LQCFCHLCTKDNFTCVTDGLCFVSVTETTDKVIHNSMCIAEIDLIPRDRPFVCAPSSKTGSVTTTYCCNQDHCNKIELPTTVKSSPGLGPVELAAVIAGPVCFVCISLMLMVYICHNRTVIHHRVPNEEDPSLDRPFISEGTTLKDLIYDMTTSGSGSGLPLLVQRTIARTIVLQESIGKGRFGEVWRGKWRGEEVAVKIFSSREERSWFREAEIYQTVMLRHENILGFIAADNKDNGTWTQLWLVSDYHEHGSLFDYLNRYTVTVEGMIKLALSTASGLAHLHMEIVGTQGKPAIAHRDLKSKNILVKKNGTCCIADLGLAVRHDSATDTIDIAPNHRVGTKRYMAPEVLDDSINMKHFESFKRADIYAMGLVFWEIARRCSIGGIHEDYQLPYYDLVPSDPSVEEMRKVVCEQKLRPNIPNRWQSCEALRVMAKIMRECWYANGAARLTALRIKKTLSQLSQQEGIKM"}, "source": "patent US20210130473A1", "about": "“TGFßR1 INHIBITOR-ASGR ANTIBODY CONJUGATES AND USES THEREOF” (Silverback Therapeutics, Inc., priority 2019, published 2021)", "key": {"ALK5": {"molecular_target": "ALK5 (Homo sapiens, UniProt P36897)", "assay": "ALK5 enzyme inhibition assay (casein substrate, 10 uM ATP, 33P-ATP, filter-binding; Reaction Biology Corp)", "conditions": "Table 12"}, "[1]": {"tested_on": "TGFβ/SMAD Signaling Pathway SBE reporter cell line", "assay": "TGFb reporter assay in HEK293 SBE-LUC reporter cells (luciferase)", "conditions": "key of the table says IC50"}}}
{"smiles": "CC(=O)NC1Cc2ccc(NCc3nc(-c4cccc(C)n4)c(-c4ccc5ncnn5c4)[nH]3)cc2C1", "note": "(centres unmarked)", "values": [{"measurement": "IC50", "setting": "ALK5", "result": "100 to 1000", "unit": "nM"}, {"measurement": "IC50", "setting": "[1]", "result": "100 to 1000", "unit": "nM"}]}
